Laboratory results: PMC10114720

Legend:
[1] = PDMS sheets cleaned by Soxhlet with ethyl acetate; batch shaking method with a mixture of all chemicals at several PDMS-mass to water-volume ratios and spiked levels; vials shaken on an orbital shaker at room temperature in the dark, sampled at two equilibration times; PDMS extracts and water quantified by LC-HRMS (Orbitrap); D from the slope of C_PDMS on C_w or their ratio; value is the mean over that pH's experiments (individual experiments in the SI's concentrations table), sd is the table's stdev; settings: PDMS (polydimethylsiloxane silicone sheet), phosphate buffer at three target pH values (the paper's methods)
[2] = monoprotic acid or base: log K of the neutral species extrapolated from the linear regression of D on the neutral fraction (from pKa and pH; the paper's eq. for monoprotic IOCs), the slope giving K of the neutral species; replicates column holds the table's 95% confidence limits. PDMS sheets cleaned by Soxhlet with ethyl acetate; batch shaking method with a mixture of all chemicals at several PDMS-mass to water-volume ratios and spiked levels; vials shaken on an orbital shaker at room temperature in the dark, sampled at two equilibration times; PDMS extracts and water quantified by LC-HRMS (Orbitrap); D from the slope of C_PDMS on C_w or their ratio; settings: PDMS (polydimethylsiloxane silicone sheet); phosphate buffer at three target pH values (the paper's methods)
[3] = neutral chemical: log K is the mean of log D over all measurements at the three pH values (D shown independent of pH, paired t-test); sd is the table's stddev. PDMS sheets cleaned by Soxhlet with ethyl acetate; batch shaking method with a mixture of all chemicals at several PDMS-mass to water-volume ratios and spiked levels; vials shaken on an orbital shaker at room temperature in the dark, sampled at two equilibration times; PDMS extracts and water quantified by LC-HRMS (Orbitrap); D from the slope of C_PDMS on C_w or their ratio; settings: PDMS (polydimethylsiloxane silicone sheet); phosphate buffer at three target pH values (the paper's methods)

SMILES | log D PDMS/w (apparent distribution ratio at the stated pH) ([1]; pH 3) | log D PDMS/w (apparent distribution ratio at the stated pH) ([1]; pH 7.4) | log K PDMS/w (neutral species) [2] | log D PDMS/w (apparent distribution ratio at the stated pH) ([1]; pH 11.5) | log K PDMS/w (neutral species) [3]
CC1CCc2cc(F)cc3c(=O)c(C(=O)O)cn1c23 (stereo not drawn) | 1.122 log units; D and K as the pape | 0.6177 log units; D and K as the pape | 1.168 log units; D and K as the pape |  | 
COc1cc(NS(=O)(=O)c2ccc(N)cc2)nc(OC)n1 |  |  | 0.1028 log units; D and K as the pape |  | 
NC(=O)N1c2ccccc2CC(O)c2ccccc21 (stereo not drawn) | 0.005556 log units; D and K as the pape | -0.2088 log units; D and K as the pape |  | -0.07875 log units; D and K as the pape | -0.09 log units; D and K as the pape
CCOc1nc2cccc(C(=O)O)c2n1Cc1ccc(-c2ccccc2-c2nnn[nH]2)cc1 | 1.102 log units; D and K as the pape |  |  |  | 
COc1cc(Cc2cnc(N)nc2N)cc(OC)c1OC |  |  | 0.7731 log units; D and K as the pape |  | 
NC(=O)N1c2ccccc2C=Cc2ccccc21 | 1.225 log units; D and K as the pape | 1.222 log units; D and K as the pape |  | 1.269 log units; D and K as the pape | 1.238 log units; D and K as the pape
CCCc1nc2c(C)cc(-c3nc4ccccc4n3C)cc2n1Cc1ccc(-c2ccccc2C(=O)O)cc1 | 1.742 log units; D and K as the pape | 1.734 log units; D and K as the pape |  | -0.3475 log units; D and K as the pape | 
CC(=O)CCCCn1c(=O)c2c(ncn2C)n(C)c1=O | 1.071 log units; D and K as the pape | 1.119 log units; D and K as the pape |  | 1.161 log units; D and K as the pape | 1.117 log units; D and K as the pape
